Assays:
[1] = mice, i.p.
[2] = Subcutaneous Metrazol Seizure Threshold Test (sc Met) in mice; details: Phase V, i.p.

## CCC1(c2ccccc2)C(=O)NC(=O)NC1=O [Phenobarbital, phenobarbital]
[1]
  Time of Test / time of peak effect (TPE), Rotorod: 1/2
[2]
  effectiveness by the sc Met test: effective against sc Met, sc Bic, and sc Pic in nontoxic doses

— patent US4618681A, “Aryl substituted 1H-4,5-dihydro-1,2,3-triazoles as anticonvulsants” (priority 1984, dated 1986)
